From PubChem BioAssay
A549 tox: kills or reduces viability of A549 cells in Nrf2 counter-screen | A549 ARE-Fluc cells, CellTiter-Fluor viability, 18-24 h | Potency, µM (doses to about 46 µM), inactives show at the highest dose activity change, negative = cytotoxicity, most hits filed as inhibitors | 0.16% of 390,000 active | AID 504648; also: potency is read from the fitted curve at half-maximal effect; % is scaled to controls: 0 for no effect and ±100 for the full control effect
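A549 ARE-Fluc cells in 5% FBS OPTI-MEM, 5000 cells/well, rested 2 h then exposed to compounds in concentration-response for 18-24 h at 37 °C. Viability by CellTiter-Fluor fluorescence (Ex 405/Em 525) after 30 min; luciferase luminescence (BugLite, 15 min, RT) read afterwards.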
Mito fusion act: inhibitors of mitochondrial division or activators of mitochondrial fusion | S. cerevisiae fusion-defective mutant growth rescue, CellTiterGlo 48 h | Potency, µM (highest dose often 46.1 µM), for the others: at the top dose growth rescue (activation), most hits filed as activators | 0.23% of 320,000 active; also: potency is read from the fitted curve at half-maximal effect; % of control where 0% means no effect; nearly all actives have a fitted effect of over 45% in size
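Compounds are tested for their ability to restore growth of mitochondrial fusion-defective yeast strains at non-permissive 37C in YPEG medium over 48 hours. Viability is quantified by luciferase luminescence.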
Nrf2 block: blocks Nrf2 signaling; A549 ARE-Fluc reporter, luciferase luminescence, 18-24 h; Potency, µM (top dose mostly 46 µM), for the others: at the highest dose activity change, negative = inhibition, hits mostly inhibitors; 2.1% of 360,000 active; also: potency is read from the fitted curve at half-maximal effect; % is scaled to controls: 0 for no effect and ±100 for the full control effect; nearly all actives have a fitted effect of over 60% in size
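A549 ARE_Fluc cells, 5000/well, 5% FBS OPTI-MEM; compounds in dose-response, 18-24 h at 37 °C/5% CO2; CellTiter-Fluor viability read (Ex 405/Em 525), then BugLite luciferase luminescence = Nrf2 activity.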
Nrf2 ARE act: Nrf2 pathway activation; AID 624171; AREc32 ARE-luciferase reporter (MCF7-derived line), luminescence, 24 h; 0.31% of 410,000 active; Potency, µM (highest dose often 46.1 µM), without a hit: at the highest dose activation, actives largely listed as activators; also: potency is read from the fitted curve at half-maximal effect; % of control where 0% means no effect; nearly all actives have a fitted effect of over 65% in size
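Nrf2 activation is followed as ARE-luciferase induction in the AREc32 line after one day of compound treatment; luminescence is read with Steady-Glo.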
miR-21 reporter: miR-21 reporter, rising signal; HeLa miR-21 FLuc reporter, luciferase, 48 h; Potency, µM (top dose mostly 38.3 µM), without a hit: at the highest dose reporter change, positive = more light; 340,000 tested, under 10 active; active = well fitted rising curve with a large enough effect; inconclusive = small, poorly fitted or top-dose-only effect; inactive = no such curve, though single readings can be large or run the other way;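 further: % of control where 0% means no effect; miR-21 action dims this reporter so a rising signal means less miR-21 action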
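Compounds were titrated across several concentrations (up to approximately 40 uM) and incubated 48 hours with HeLa miR-21-FLuc reporter cells (miR-21 target sequence downstream of FLuc, endogenous miR-21). Readout was firefly luciferase luminescence after lytic detection reagent.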
* marks the source's active call; other numbers are inactive results; ? = inconclusive; . = no result given; ! = not confirmed by another sample; [ ] = another dose, or the depositor's remark. Rows were chosen to be rich in hits. Some 2.3% of all compounds tested hit in one or more screens of this group. Unless noted, calls follow the shape of the dose curve; as a rule, active = well fitted curve in the direction sought with a large enough effect; inconclusive = small, poorly fitted or top-dose-only effect, or another doubt; inactive = no such curve, though single readings can be large; an effect the other way counts as inactive or inconclusive.

# | SMILES | A549 tox | Mito fusion act | Nrf2 block
1 | COC(=O)[C@]1(C)C[C@H]1[C@H](NP(=O)(c1ccccc1)c1ccccc1)c1ccccc1 | -1% | 1% | -1%
2 | O=c1[nH]c(=S)[nH]c(O)c1N=Nc1ccc(-c2ccccc2)cc1[N+](=O)[O-] | . | 9% | .
3 | COc1ccc(Nc2nc(N)nc(CSc3nc4ccccc4s3)n2)cc1 | -6% | . | 21µM*
4 | Cc1nn(-c2nccs2)c2c1C(=O)CC(C)(C)C2Br (stereo not given) | 4% | . | ?
5 | CC1=Nc2cc(C(=O)N3CCC4(CC3)OCCO4)ccc2Sc2ccc(Cl)cc21 | 4% | 16µM* | 23%
6 | CC(C)C[C@H]1C(=O)N2CCC[C@H]2[C@]2(O)O[C@](NC(=O)C3C=C4c5cccc6[nH]c(Br)c(c56)C[C@H]4N(C)C3)(C(C)C)C(=O)N12 (stereo not given in full) | ? | . | 18µM*
7 | CC(C)c1ccc(NC(=O)Cn2c(=O)oc3ccccc32)cc1 | 9% | -48% | -34%
8 | CC(C)c1ccc(NC(=O)Cn2c(=O)oc3cc(S(=O)(=O)N4CCCC4)ccc32)cc1 | -11% | . | 21µM*
9 | CC(C)n1c(=O)c(C=Nc2cccc([N+](=O)[O-])c2)c(O)n(CCc2ccccc2)c1=O | -19% | 14% | -16%
10 | C[C@H]1[C@H](OC(=O)CCC(=O)NCc2ccc(C(=O)O)cc2)O[C@@H]2O[C@@]3(C)CC[C@H]4[C@H](C)CC[C@@H]1C24OO3 | 21µM* | 21% | 21µM*

# | Nrf2 ARE act | miR-21 reporter
1 | 0% | -1%
2 | . | -49%
3 | -3% | 9%
4 | 3% | .
5 | 0% | -8%
6 | 8% | .
7 | 0% | -22%
8 | -1% | ?
9 | 11µM* | -5%
10 | 11% | ?

Next compounds follow.
# | SMILES | A549 tox | Mito fusion act | Nrf2 block
11 | N[C@@H](Cn1ccc(=O)[nH]c1=O)C(=O)O | . | -41% | .
12 | c1ccc2sc(C3(N4CCCCC4)CCCCC3)cc2c1 | . | 11% | .
13 | O=C(NCCSc1c(-c2ccccc2)[nH]c2ccccc12)c1ccc(S(=O)(=O)N2CCOCC2)cc1 | -14% | . | -30%[9.27 µM]
14 | CC(C)=CCOc1c2occc2cc2ccc(=O)oc12 | 9% | 16µM*! | -4%
15 | Cc1ccc(-n2nc3c(=O)n(CC(=O)Nc4ccccc4F)nc(C)c3c2C)c(C)c1 | -1% | . | ?
16 | O=C(Cc1ccc(S(=O)(=O)N2CCCC2)s1)N1CCN(c2ccc(F)cc2)CC1 | -12% | -3% | 18µM*
17 | O=C(COc1ccccc1Cl)N1CCCC(N2CCN(c3ccc(F)cc3)CC2)C1 (stereo not given) | 0% | -1% | 1%
18 | O=C1c2ccccc2-c2cc3ccccc3cc21 | -2% | . | ?
19 | O=C1c2ccccc2-c2cccc3cccc1c23 | 5% | . | 22%
20 | CC(=O)OC1CCC2(C)C(CCC3C2CC(=O)C2(C)C3CC(N3CC3)C2C(C)=O)C1 (stereo not given) | 18µM* | . | 14%

# | Nrf2 ARE act | miR-21 reporter
11 | . | .
12 | . | .
13 | 6% | ?
14 | 6% | -11%
15 | 5% | 12%
16 | -1% | 3%
17 | 0% | 23%
18 | 3.2µM* | .
19 | ? | .
20 | ? | .

Rewritten as labelled records: entries from further up
20	CC(=O)OC1CCC2(C)C(CCC3C2CC(=O)C2(C)C3CC(N3CC3)C2C(C)=O)C1 (stereo not given)
- A549 tox: 18µM*
- Mito fusion act: .
- Nrf2 block: 14%
- Nrf2 ARE act: ?
- miR-21 reporter: .
12	c1ccc2sc(C3(N4CCCCC4)CCCCC3)cc2c1
- A549 tox: .
- Mito fusion act: 11%
- Nrf2 block: .
- Nrf2 ARE act: .
- miR-21 reporter: .
16	O=C(Cc1ccc(S(=O)(=O)N2CCCC2)s1)N1CCN(c2ccc(F)cc2)CC1
- A549 tox: -12%
- Mito fusion act: -3%
- Nrf2 block: 18µM*
- Nrf2 ARE act: -1%
- miR-21 reporter: 3%
13	O=C(NCCSc1c(-c2ccccc2)[nH]c2ccccc12)c1ccc(S(=O)(=O)N2CCOCC2)cc1
- A549 tox: -14%
- Mito fusion act: .
- Nrf2 block: -30%[9.27 µM]
- Nrf2 ARE act: 6%
- miR-21 reporter: ?

Further compounds
# | SMILES | A549 tox | Mito fusion act | Nrf2 block
21 | CC(=O)O[C@@H]1CC[C@]2(C)C3CC[C@@]4(C)C(C[C@@H](O)[C@@H]4O)C3[C@@H](OC(C)=O)C[C@H]2C1 (stereo not given in full) | -1% | . | -20%
22 | Fc1ccc(CCNCc2ccc(Cl)c(Cl)c2)cc1 | ? | -7% | 12µM*
23 | CCc1ccc(CNCCc2ccc(F)cc2)cc1 | 0% | -1% | -8%
24 | O=C(CSc1nc(-c2cccs2)nc2cc(=O)[nH]n12)Nc1ccc(F)cc1 | -6% | . | 12%
25 | Cc1ccc(NC(=O)c2ncn(CC(=O)NCc3ccc4c(c3)OCO4)n2)cc1C | -3% | . | ?
26 | COc1ccccc1C(=O)Nc1ccc2nc(SCC(=O)N(C)c3ccccc3)sc2c1 | -4% | . | 1%
27 | CC(C)(C)c1ccc(C(=O)Nc2ccc3nc(SCC(=O)N4CCCC4)sc3c2)cc1 | ? | . | 15µM*
28 | Cc1ccccc1C(=O)Nc1ccc2nc(SCC(=O)N(C)c3ccccc3)sc2c1 | -13% | . | ?
29 | Cc1cc2c(cc1C)-n1c(-c3ccccc3)c3c(=O)n(C)c(=O)n(C)c3c1C(c1ccco1)N2 (stereo not given) | 0% | . | ?
30 | C=CCn1c(O)c(C=Nc2ccc(N(CC)CC)cc2)c(=O)[nH]c1=O | -11% | -6% | 3.3µM*

# | Nrf2 ARE act | miR-21 reporter
21 | 0% | .
22 | 0% | 1%
23 | 2% | 1%
24 | ? | -1%
25 | 3% | .
26 | -1% | ?
27 | -3% | ?
28 | 1% | ?
29 | 0% | 18%
30 | 5% | -5%

Later entries.
# | SMILES | A549 tox | Mito fusion act | Nrf2 block
31 | CC(C)(C)c1ccc(C(=O)NC(=S)Nn2cnnc2)cc1 | -6% | -4% | ?
32 | Cc1ccc(-c2nnc(Nc3ccc(Br)cc3)c3ccccc23)cc1S(=O)(=O)NCc1nc2ccccc2[nH]1 | -14% | . | ?
33 | CN(C)[C@@H]1C(=O)C(C(N)=O)=C(O)[C@@]2(O)C(=O)C3=C(O)c4c(O)ccc(Cl)c4[C@@](C)(O)C3C[C@@H]12 (stereo not given in full) | ? | -6% | 23µM*
34 | CN(C)C1C(=O)C(C(N)=O)=C(O)C2(O)C(=O)C3=C(O)c4c(O)cccc4C(C)(O)C3CC12 (stereo not given) | -15% | -1% | 3%
35 | COc1cccc(NC(=O)C2CCN(S(=O)(=O)c3cc(-c4noc(C)n4)ccc3C)CC2)c1 | -7% | . | .
36 | Cc1c(-c2ccc(Br)cc2)c(=O)oc2ccc(OC(=O)N3CCOCC3)cc12 | ? | . | .
37 | Clc1ccc2c(c1)C(c1ccccc1Cl)=NCc1nnc(N3CCN(CCOc4ccccc4)CC3)n1-2 | 1% | 13µM* | -23%
38 | Cc1c(N=Cc2c(O)n(Cc3ccccc3)c(=O)[nH]c2=O)c(=O)n(-c2ccccc2)n1C | -2% | -15% | 23%
39 | Cc1c(N=Nc2c(O)n(Cc3ccccc3)c(=O)[nH]c2=O)c(=O)n(-c2ccccc2)n1C | 16µM* | -5% | 5.2µM*
40 | N=C1/C(=C\c2ccc(OC(=O)c3ccccc3Cl)cc2)C(=O)N=C2SC(N3CCOCC3)=NN12 | -14% | 0% | ?
41 | O=C(C1CCCN(S(=O)(=O)c2cccc3nsnc23)C1)N1CCN(c2cccc(Cl)c2)CC1 (stereo not given) | -16% | . | 21µM*
42 | Cc1ccc(S(=O)(=O)N2CCCC(C(=O)N3CCC4(CC3)OCCO4)C2)cc1 (stereo not given) | 13% | 9% | 2%
43 | Cc1csc(NC(=O)C2CCCN(S(=O)(=O)c3ccc4c(c3)oc(=O)n4C)C2)n1 (stereo not given) | -8% | 1% | ?

# | Nrf2 ARE act | miR-21 reporter
31 | 0% | -45%
32 | 11% | 24%
33 | -1% | -2%
34 | 0% | 3%
35 | 4% | ?
36 | 6% | 10%
37 | 0% | -3%
38 | 0% | -4%
39 | 0% | -4%
40 | 5% | -11%
41 | 0% | 19%
42 | 0% | -1%
43 | 1% | 8%
